PubChem BioAssay AID492956 (The Scripps Research Institute Molecular Screening Center, 2010)
The entries are a selection whose mix differs from that of the whole data set. Activity calls are given as the source filed them.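 Rule for the calls: active = inhibition above the mean over all tested compounds plus 3 SD (cut at about 30% in these data); inactive = the rest.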

Biological target: Platelet-activating factor acetylhydrolase 2, cytoplasmic (Homo sapiens) (UniProt Q99487)
Assay: PAFAH2 enzyme inhibitors, primary screen, biochemical, fluorescence polarization, human (AID 492956);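 note: inhibitors block probe labeling of enzyme so polarization drops; 0% = enzyme with DMSO and 100% = wells lacking PAFAH2 protein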
Conditions: recombinant PAFAH2, FP-rhodamine activity probe, at 3.39 µM, active compounds read high

| Structure (SMILES) | inhibition |
| --- | --- |
| O=[As](O)(c1cccs1)c1cccs1 | inactive: 2.86% |
| Cc1ccc(OCC(=O)OC2CN3CCC2CC3)cc1 (stereo not drawn) | inactive: 1.34% |
| O=P1(Nc2ncccn2)COc2ccccc2OC1 | inactive: 2.6% |
| CN(C)C1(CNC(=O)c2ccc(S(C)(=O)=O)cc2)CCCCC1 | inactive: -3.04% |
| CCCC1OP(=O)(Nc2ccccc2)OCC1CC (stereo not drawn) | inactive: -0.95% |
| O=C(/C=C/c1ccccc1)OC1CN2CCC1CC2 (stereo not drawn) | inactive: 6.14% |
| CC1CCC(C(C)C)C(OP(=O)(Nc2ccccn2)c2ccccc2)C1 (stereo not drawn) | inactive: 3.57% |
| Cc1ccc(C(=O)OC2CN3CCC2CC3)cc1 (stereo not drawn) | inactive: -0.14% |
| Cc1nn(-c2ccccc2)c2c1P(=O)(N1CCOCC1)N(C)C(c1ccccc1)=N2 (stereo not drawn) | inactive: 2.15% |
| CC(C)/C=N\N=C(\N)N[N+](=O)[O-] | inactive: 7.84% |
| CN(C(=O)Cc1ccc(Cl)c(Cl)c1)[C@@H]1CCCC[C@H]1N1CCCC1 | inactive: 1.48% |
| CC1(CBr)Cn2c(nc3ccccc3c2=O)S1 (stereo not drawn) | inactive: -5.93% |
| COc1ccccc1CNC(=O)COC(=O)C(O)(c1ccccc1)c1ccccc1 | inactive: -2.44% |
| CC(C)(C)C(=O)NC(Sc1ncccn1)C(Cl)(Cl)Cl (stereo not drawn) | inactive: 1.79% |
| Clc1n[nH]nc1-c1nn[nH][15n]1 | inactive: -0.25% |
| CCOP(=O)(NC(=NC(C)c1ccccc1)NC(C)c1ccccc1)OCC (stereo not drawn) | inactive: 2.9% |
| O=P1(Nc2ccccn2)COc2ccccc2OC1 | inactive: 1.69% |
| CCC1=CC2Cc3nc4ccc(Cl)cc4c(N)c3C(C1)C2 (stereo not drawn) | inactive: 5.92% |
| CCOP(=O)(Nc1ccc(C)cn1)OCC | inactive: -1.19% |
| CCC(C)N(CC(C)C)C(=S)SC(NC(C)=O)C(Cl)(Cl)Cl (stereo not drawn) | inactive: 4.09% |
| O=C(OC1CN2CCC1CC2)c1cccc([N+](=O)[O-])c1 (stereo not drawn) | inactive: 2.65% |
| CCOC(=O)c1ccc(NC(=O)C(C)(CCl)SC)cc1 (stereo not drawn) | inactive: 2.05% |
| O=C(Nc1ccncc1[N+](=O)[O-])c1ccc([N+](=O)[O-])cc1[N+](=O)[O-] | inactive: -6.34% |
| O=C(COc1ccccc1)OC1CN2CCC1CC2 (stereo not drawn) | inactive: -0.43% |
| COP1(=S)c2c(C)nn(CCC#N)c2N=C(c2ccc(F)cc2)N1C (stereo not drawn) | inactive: 0.11% |
| O=P(Nc1ccccn1)(c1cccc2ccccc12)c1cccc2ccccc12 | inactive: 4.6% |

| Structure (SMILES) | inhibition |
| --- | --- |
| Cc1cc(SC(NC=O)C(Cl)(Cl)Cl)ncn1 (stereo not drawn) | inactive: -8.46% |
| O=[N+]([O-])c1ccc(Nc2ccc(Oc3ccc([N+](=O)[O-])cc3[N+](=O)[O-])cc2)c([N+](=O)[O-])c1 | inactive: -5.63% |
| CCOC(=O)Nc1cccc([As](=O)(O)O)c1 | inactive: 3.07% |
| Cc1cc(SC(NC(=O)c2ccccc2)C(Cl)(Cl)Cl)nc(C(C)C)n1 (stereo not drawn) | inactive: 0.14% |
| CCCCOc1ccc(C(=O)NCC2(N3CCCCC3)CCCCC2)cc1OC | inactive: -4.99% |
| CCOC(=O)Nc1ccc([As](=O)(O)O)c(O)c1 | inactive: 2.51% |
| CC1CCNP(=O)(N(CCCl)CCCl)O1 (stereo not drawn) | inactive: 4.59% |
| O=[N+]([O-])c1cc([N+](=O)[O-])c(-c2ccn[nH]2)s1 | inactive: 1.12% |
| O=C(OC1CN2CCC1CC2)c1cccc2[nH]cnc12 (stereo not drawn) | inactive: -9.24% |
| CCN(CC)C(=S)SC(NC=O)C(Cl)(Cl)Cl (stereo not drawn) | inactive: -2.15% |
| ClCCSc1nnc(-c2cccnc2)o1 | inactive: -2.12% |
| CC(C)c1ccc(OP(=O)(Nc2ccccn2)Oc2ccccc2F)cc1 (stereo not drawn) | inactive: 2.88% |
| COC(=O)C1(C)COP(=O)(N2CCCCCC2)OC1 (stereo not drawn) | inactive: 3.96% |
| Cc1ccc(OP(=O)(Nc2ccc([N+](=O)[O-])cn2)Oc2ccc(C)cc2)cc1 | inactive: 7.2% |
| Cc1ccc2nc3c(c(C)c2c1)CC(C(Cl)Cl)S3 (stereo not drawn) | inactive: -10.4% |
| COc1cc(C(=O)NCC2(N3CCOCC3)CCCCC2)ccc1OCC(C)C | inactive: 0.37% |
| O=[N+]([O-])c1ccc(-c2cc([N+](=O)[O-])c(O)c([N+](=O)[O-])c2)cc1 | inactive: 2.29% |
| C[As](=O)(O)c1cccc(C(=O)O)c1 | inactive: -0.27% |
| O=[As](O)(c1ccc(O)cc1)c1ccccc1O | inactive: -0.23% |
| O=[N+]([O-])c1cc(Oc2ccc([N+](=O)[O-])cc2C(F)(F)F)cc([N+](=O)[O-])c1 | inactive: 3.41% |
| COc1ccc(N/C(=N/P(=O)(N2CCOCC2)N2CCOCC2)N2CCOCC2)cc1 | inactive: -2.34% |
| O=P1(N(CCCl)CCCl)OCCCN1CCCl (stereo not drawn) | inactive: -5.18% |
| O=P1(N(CCCl)CCCl)Nc2ccccc2N1 | inactive: 0.41% |
| COc1cc(I)ccc1[As](=O)(O)O | inactive: 1.92% |
| COc1ccc2nc(NP(=O)(c3ccccc3)c3ccccc3)sc2c1 | inactive: 19.6% |
| Cc1c2c(nc3ccccc13)SC(C(Cl)Cl)C2 (stereo not drawn) | inactive: 3.92% |

| Structure (SMILES) | inhibition |
| --- | --- |
| Cc1cc(=O)[nH]c(N[N+](=O)[O-])n1 | inactive: -5.35% |
| O=C(OC1CN2CCC1CC2)C12CC3CC(CC(C3)C1)C2 (stereo not drawn) | inactive: -4% |
| O=C(NC(Sc1ccncn1)C(Cl)(Cl)Cl)c1ccccc1 (stereo not drawn) | inactive: 3.61% |
| Oc1ccccc1CNc1ccccn1 | inactive: -0.9% |
| CC(C)CC(=O)NC(Sc1ccc(Cl)cc1)C(Cl)(Cl)Cl (stereo not drawn) | inactive: -1.61% |
| Nc1cc(N)c2nonc2c1[N+](=O)[O-] | inactive: -2.62% |
| Clc1ccc(Cl)c(NC2=NCC(CBr)S2)c1 (stereo not drawn) | inactive: -4% |
| CN1CCCC(OC(=O)C(c2ccccc2)c2ccccc2)C1 (stereo not drawn) | inactive: -3.45% |
| COc1ccccc1OP(=O)(Nc1ccc(C)cn1)Oc1ccccc1OC | inactive: 2.91% |
| Cc1ccc(N/C(=N/P(=O)(N2CCOCC2)N2CCOCC2)N2CCOCC2)cc1 | inactive: -0.69% |
| CN(C(=O)Cc1ccc(Cl)c(Cl)c1)[C@H]1CCCC[C@H]1N1CCCC1 | inactive: -4.7% |
| NC(=O)c1cc([N+](=O)[O-])cc([N+](=O)[O-])c1N | inactive: 0.11% |
| Nc1cccc2ccc([As](=O)(O)O)cc12 | inactive: 14% |
| CCN(N=Nc1nonc1N)c1nonc1N | inactive: -2.33% |
| Cc1ccc(NP(=O)(Oc2ccccc2F)Oc2ccccc2F)nc1 | inactive: -1.62% |
| CN(C(=O)Cc1ccc(Cl)c(Cl)c1)[C@H]1CCCC[C@@H]1N1CCCC1 | inactive: -3.14% |
| CCOP(=O)(Nc1ccccc1)OCC | inactive: -8.59% |
| Cc1cc(SC(NC(=O)c2ccc(F)cc2)C(Cl)(Cl)Cl)ncn1 (stereo not drawn) | inactive: -3.85% |
| O=P(Nc1nc2ccc(Cl)cc2s1)(c1ccccc1)c1ccccc1 | inactive: 2.43% |
| CCCC1OP(N)(=O)OCC1CC (stereo not drawn) | inactive: 3.18% |
| O=C(O)c1ccccc1[As](=O)(O)O | inactive: 2.51% |
| CC(=O)Nc1ccc([As](=O)(O)O)cc1 | inactive: 6.6% |
| O=C(O)CNc1ccc([As](=O)(O)O)cc1 | inactive: -0.59% |
| O=[N+]([O-])c1cccc(NC2=NCC(CBr)S2)c1 (stereo not drawn) | inactive: -8.74% |
| COC(=O)C1(C)COP(=O)(Nc2ccccc2)OC1 (stereo not drawn) | inactive: 7.62% |
| O=[N+]([O-])c1ncn(CCn2ncnc2[N+](=O)[O-])n1 | inactive: -3.26% |

| Structure (SMILES) | inhibition |
| --- | --- |
| CC(C)(C)C(=O)NC(Sc1ccncn1)C(Cl)(Cl)Cl (stereo not drawn) | inactive: 2.51% |
| O=C(Nc1cc([As](=O)(O)O)ccc1O)c1ccccc1 | inactive: 2.55% |
| O=P1(N(CCCl)CCCl)OCCCS1 (stereo not drawn) | inactive: 0.15% |
| CC1CCN(C(=O)Oc2c(Cl)cc(Cl)c3cccnc23)CC1 | inactive: 2.16% |
| CN(C)C(=O)OCCc1n(C)cc[n+]1C | inactive: 7.93% |
| CC(C)=N/N=C(\N)N[N+](=O)[O-] | inactive: -11.3% |
| CCN(/C(=N/P(=O)(N1CCOCC1)N1CCOCC1)N1CCOCC1)c1ccc(OC)cc1 | inactive: -4.61% |
| C[N+]1=C2C=CC=CC=C2SC12C([N+](=O)[O-])=CC([N+](=O)[O-])=C[C-]2[N+](=O)[O-] (stereo not drawn) | active: 43.5% |
| Nc1ccc([As](=O)(O)c2ccc(N)cc2)cc1 | inactive: -3.88% |
| CCc1nc2c(n1)c1c(non1O)c1c2no[n+]1[O-] | inactive: 13.9% |
| O=[N+]([O-])c1cc([N+](=O)[O-])c(CCNc2ccccc2)c([N+](=O)[O-])c1 | inactive: 11.9% |
| Cc1ccc(NP(=O)(Oc2ccccc2)Oc2ccccc2)nc1 | inactive: 10.8% |
| O=[N+]([O-])c1cccc2n[nH]nc12 | inactive: -3.87% |
| CC(=O)N1C2C3N(C(C)=O)C1C1N(C(C)=O)C(C(N1C(C)=O)N3C(C)=O)N2C(C)=O | inactive: -1.52% |
| COc1ccc(C2=NCC(CBr)S2)cc1 (stereo not drawn) | inactive: 2.81% |
| c1nnnn1CCn1cnnn1 | inactive: 2.88% |
| CC(C)C(=O)NC(Sc1ccccc1)C(Cl)(Cl)Cl (stereo not drawn) | inactive: -1.3% |
| O=P(Nc1nccs1)(c1ccccc1)c1ccccc1 | inactive: 0.42% |
| O=C(OC1CN2CCC1CC2)c1cccc(Cl)c1 (stereo not drawn) | inactive: -2.48% |
| Nc1ccc([As](=O)(O)c2ccc([N+](=O)[O-])cc2)cc1 | inactive: -1.49% |
| C(Cc1nn[nH]n1)Cc1nn[nH]n1 | inactive: 6.36% |
| O=[As](O)(c1ccccc1)c1ccc(O)cc1 | inactive: 2.01% |
| O=[N+]([O-])c1ccc(O)c(/C=N/Nc2ccc([N+](=O)[O-])cc2[N+](=O)[O-])c1 | active: 36.5% |
| O=[N+]([O-])c1ncn(CCn2cnc([N+](=O)[O-])n2)n1 | inactive: -6.14% |
| CC(=O)NC(SC(=S)N(C)C)C(Cl)(Cl)Cl (stereo not drawn) | inactive: -2.08% |
